Data taken from PubChem BioAssay AID1265 (The Scripps Research Institute Molecular Screening Center, 2008).
The list shows a part of the results, in another mix than the full data. Calls of active or inactive are those of the source.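 How the source made its calls: active means inhibition above the hit cutoff computed for the primary STAT3 screen (cut at about 44% in these data); inactive means the rest.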

Experiment: STAT3 reporter inhibitors, retest of hits, confirmation, U3A cells, luciferase, luminescence (AID 1265);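 further: 0% = IL-6 plus DMSO and 100% = IL-6 plus nifuroxazide control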
Settings: IL-6 STAT3 luciferase reporter, at 5.7 µM, active compounds read high, cell line lacks STAT1

| Structure (SMILES) | inhibition |
| --- | --- |
| O=c1c2cc([N+](=O)[O-])ccc2[nH]c2c([N+](=O)[O-])cc([N+](=O)[O-])cc12 | inactive: 30.7% |
